pIC50: −log10 of the molar value. Like-named read-outs stand apart in the source and are kept apart here.

The chains behind the UniProt entries cited, without tags or fusion partners.
UniProt P34913, whole entry: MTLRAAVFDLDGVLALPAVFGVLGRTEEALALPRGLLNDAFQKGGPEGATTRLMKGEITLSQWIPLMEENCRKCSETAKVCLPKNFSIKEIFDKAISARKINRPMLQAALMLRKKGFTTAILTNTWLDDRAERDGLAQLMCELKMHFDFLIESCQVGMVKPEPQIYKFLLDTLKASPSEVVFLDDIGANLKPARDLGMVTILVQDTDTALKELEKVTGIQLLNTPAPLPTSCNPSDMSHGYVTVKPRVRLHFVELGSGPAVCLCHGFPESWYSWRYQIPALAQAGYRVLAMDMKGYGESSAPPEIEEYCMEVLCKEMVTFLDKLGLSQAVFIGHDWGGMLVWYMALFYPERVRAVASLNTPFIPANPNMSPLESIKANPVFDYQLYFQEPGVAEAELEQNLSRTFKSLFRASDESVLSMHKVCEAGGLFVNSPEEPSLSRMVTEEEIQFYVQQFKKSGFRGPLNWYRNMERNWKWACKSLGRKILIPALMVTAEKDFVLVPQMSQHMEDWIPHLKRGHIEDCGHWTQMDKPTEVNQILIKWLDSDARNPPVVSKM

The target in this test is Human recombinant sEH (Homo sapiens (Human), UniProt P34913). As to the kind of experiment: Soluble epoxide hydrolase inhibition (PHOME fluorescent substrate). It counts as biochemical. Here is the method:
Compounds were tested for their ability to inhibit recombinant soluble epoxide hydrolase (sEH) protein. The assay utilizes (3-Phhenyl-oxiranyl)-acetic acid cyano-(6-methoxy-naphthalen-2-yl)-methyl ester (PHOME), a sensitive substrate for sEH that can be used to monitor the activity of both human and murine enzymes. Hydrolysis of the substrate epoxide yields a highly fluorescent product, 6-methoxy-2-Naphthaldehyde, which can be monitored at excitation and emission wavelengths of 330 and 465 nm, respectively. See Wolf et al., Anal Biochem 355:71-80, 2006 PMID: 16729954. Human recombinant sEH was incubated with substrate and compounds ranging in concentration from 0.1 to 1000 nM.

For the compound `CCCCCNC(=O)NCCCC/C=C\CCCCCCC(=O)N[C@@H](CC(=O)O)C(=O)O` (stereo in doubt) [Compound 7, (S)-2-(13-(3-n-Pentylureido)tridec-8(Z)-enamido)succinic acid], the IC50 (as a rule, the point on the concentration scale where inhibition reaches its midpoint) (Table 1 head prints μM (Table 2 prints nM for same numbers), read-out: sEHi IC50) came out at 0.392 µM. Besides, the pIC50 (commonly the negative decadic logarithm of the IC50, by convention in mol/L) (Table 2, read-out: SEHi activity IC50) was 6.41.

The values above are taken from US9127027B2, “Epoxyeicosatrienoic acid analogs and methods of making and using the same” (The Medical College of Wisconsin, Inc., priority 2011, dated 2015).
